# PMC4156518 (Cell metabolism, 2014)
# Target: T1, UCP2 (murine, residues 14-309) (Mus musculus, UniProt P70406)
# T1 sequence (P70406 14-309): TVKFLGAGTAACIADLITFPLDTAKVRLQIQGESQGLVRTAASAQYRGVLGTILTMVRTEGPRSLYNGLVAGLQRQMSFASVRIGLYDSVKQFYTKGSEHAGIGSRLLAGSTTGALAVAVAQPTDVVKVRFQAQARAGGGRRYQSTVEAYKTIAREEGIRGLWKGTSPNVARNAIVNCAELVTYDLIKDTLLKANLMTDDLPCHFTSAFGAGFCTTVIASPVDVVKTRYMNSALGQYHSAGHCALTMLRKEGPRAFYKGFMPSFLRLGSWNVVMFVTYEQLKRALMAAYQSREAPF
# Details: 50 µM GDP, DPC/lipid micelles, pH 6.5; peripheral site between H1 and H6
structure (smiles),measurement,value
CCCCCCCCCCCCCC1(CCCC(=O)O)OCC(C)(C)N1[O] (stereo not shown) [NO-FA],"NMR paramagnetic relaxation enhancement, displacement by GDP",GDP displacing FA from its binding site
